Data: patent publication US20080280874A1, “Phenoxy Benzamide Compounds with Utility in the Treatment of Type 2 Diabetes and Obesity” (priority 2004, published 2008)

Biological target: T1, recombinant human pancreatic GLK (Homo sapiens, UniProt P35557)
T1 sequence (P35557 1-465): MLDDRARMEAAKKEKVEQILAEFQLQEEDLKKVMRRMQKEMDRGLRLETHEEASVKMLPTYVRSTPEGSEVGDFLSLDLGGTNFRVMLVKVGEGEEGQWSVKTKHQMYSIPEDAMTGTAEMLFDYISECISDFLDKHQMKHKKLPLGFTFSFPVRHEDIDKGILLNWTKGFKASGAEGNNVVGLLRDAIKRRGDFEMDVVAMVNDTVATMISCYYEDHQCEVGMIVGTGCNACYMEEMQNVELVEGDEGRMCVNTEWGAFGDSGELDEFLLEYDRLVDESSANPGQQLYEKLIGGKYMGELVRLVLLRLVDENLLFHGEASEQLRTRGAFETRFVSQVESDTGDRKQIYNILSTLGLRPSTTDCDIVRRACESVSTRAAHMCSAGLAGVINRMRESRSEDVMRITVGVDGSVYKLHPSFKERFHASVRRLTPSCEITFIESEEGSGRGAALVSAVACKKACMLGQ
Experiment: biochemical

CC[C@@H](COC)Oc1cc(Oc2ccc(C(=O)N3CCC3)cc2F)cc(C(=O)Nc2ccn(C)n2)c1 [Example 2, 3-[4-(azetidin-1-ylcarbonyl)-2-fluorophenoxy]-5-{[(1S)-1-(methoxymethyl)propyl]oxy}-N-(1-methyl-1H-pyrazol-3-yl)benzamide]
EC50: 40 nM
